Target: human Farnesoid X Receptor (FXR) ligand binding domain (GST-FXR LBD) (Homo sapiens, UniProt Q96RI1)
Assay: Human GST-FXR LBD co-activator interaction assay (HTRF)
Assay type: biochemical
Conditions: read-out: FXR Co-activator interaction assay (EC50); GST-FXR LBD / biotin-SRC-1 peptide FRET; response relative to GW4064

The chains behind the UniProt entries cited, without tags or fusion partners. Residues count along the entry.
UniProt Q96RI1, 193-472 isoform 2 limits assumed: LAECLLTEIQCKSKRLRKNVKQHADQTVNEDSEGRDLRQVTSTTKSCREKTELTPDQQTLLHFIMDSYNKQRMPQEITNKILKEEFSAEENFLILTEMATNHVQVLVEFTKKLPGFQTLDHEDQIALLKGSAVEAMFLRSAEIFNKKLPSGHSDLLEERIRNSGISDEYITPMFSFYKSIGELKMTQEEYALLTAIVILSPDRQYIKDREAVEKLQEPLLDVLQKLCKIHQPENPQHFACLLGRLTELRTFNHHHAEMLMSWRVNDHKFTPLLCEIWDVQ

Point of comparison: `Cc1cc(C(=O)O)nc(N2C3CCC2CC(OCc2c(-c4ccccc4C(F)(F)F)noc2C2CC2)C3)n1` (stereo not shown), EC50 9 nM. Against it:
- Cc1cc(C(=O)O)nc(N2C3CCC2CC(OCc2c(-c4ccccc4C(F)(F)F)noc2C2CC2)C3)c1 (stereo not shown) — 3.6-fold higher, 32 nM
- O=C(O)c1ccc(N2C3CCC2CC(OCc2c(-c4ccccc4OC(F)F)noc2C2CC2)C3)nc1 (stereo not shown) — 2.2-fold lower, 4 nM
- O=C(O)c1cnc(N2C3CCC2CC(OCc2c(-c4ccccc4OC(F)F)noc2C2CC2)C3)cc1Cl (stereo not shown) — 18-fold higher, 160 nM
